According to patent publication US20060079453A1, “Hla binding peptides and their uses” (priority 2002, published 2006):

Columns and labels:
Assay in all cases: biochemical
Assay type in all cases: binding
HLA-B*4001 = HLA-B*4001 (Homo sapiens, UniProt P01889, A65T/A93T/A95T/D138N/D98Y/E176V/E69K/N87E/Q56L/Q94N/R180L/S121R/S35A/S48T/T167S/V36M/W171L/Y33H/Y91S)
HLA-B*4403 = HLA-B*4403 (Homo sapiens, UniProt P01889, A223V/A65T/A93T/A95T/D201E/D98Y/E176V/E187L/E204Q/E69K/G107R/H137Y/K202T/L105A/L119I/N104T/N87E/Q56L/Q94N/R106L/R155S/R180L/S101N/S121R/S35A/S48T/T118I/V36M/W191S/Y140D/Y91S)
HLA-B*4002 = HLA-B*4002 (Homo sapiens, UniProt P01889, A65T/A93T/A95T/D138N/D201E/D98Y/E176V/E204Q/E69K/K202T/N87E/Q56L/Q94N/R180L/S48T/Y33H/Y91S)
HLA-B*1801 = HLA-B*1801 (Homo sapiens, UniProt P01889, A329T/A93T/A95T/C349S/D201E/D54G/D98Y/E176V/E187T/E204Q/E69T/K202T/Q94N/R155S/R180L/S121R/V306I/Y140S/Y195H/Y33H/Y91S)
HLA-B*4501 = HLA-B*4501 (Homo sapiens, UniProt P01889, A329T/A65T/A93T/A95T/C349S/D138N/D201E/D98Y/E176V/E187L/E204Q/E69K/H137Y/K202T/L119W/N87E/Q56L/Q94N/R155S/R180D/S121R/S35A/S48T/V127L/V306I/V36M/W191S/Y140L/Y33H/Y91S)
HLA-B*4402 = HLA-B*4402 (Homo sapiens, UniProt P01889, A223V/A65T/A93T/A95T/D201E/D98Y/E176V/E187L/E204Q/E69K/G107R/H137Y/K202T/L105A/L119I/N104T/N87E/Q56L/Q94N/R106L/R155S/R180D/S101N/S121R/S35A/S48T/T118I/V36M/W191S/Y140D/Y91S)

Structure (SMILES) | IC50 (HLA-B*4001) | IC50 (HLA-B*4403) | IC50 (HLA-B*4002) | IC50 (HLA-B*1801) | IC50 (HLA-B*4501) | IC50 (HLA-B*4402)
CC(C)C[C@H](NC(=O)[C@@H](NC(=O)[C@H](CCCNC(=N)N)NC(=O)[C@H](CS)NC(=O)[C@H](CCC(=O)O)NC(=O)[C@H](CCC(=O)O)NC(=O)[C@@H](N)C(C)C)C(C)C)C(=O)N[C@@H](CCC(N)=O)C(=O)NCC(=O)O | 8950 nM | 305 nM | 7620 nM |  |  | 
CC[C@H](C)[C@H](NC(=O)[C@H](CCC(=O)O)NC(=O)[C@@H]1CCCN1C(=O)[C@H](CCC(=O)O)NC(=O)[C@@H](N)CS)C(=O)N[C@@H](CCC(N)=O)C(=O)N[C@@H](CC(N)=O)C(=O)N[C@H](C(=O)N[C@H](C(=O)O)[C@@H](C)O)[C@@H](C)O |  | 120 nM |  |  |  | 
CC(C)[C@H](N)C(=O)N[C@@H](CCC(=O)O)C(=O)N[C@@H](CC(=O)O)C(=O)N[C@@H](CCCCN)C(=O)N[C@@H](CC(=O)O)C(=O)N[C@@H](C)C(=O)N[C@H](C(=O)N[C@@H](C)C(=O)N[C@@H](Cc1ccccc1)C(=O)O)C(C)C |  | 1440 nM | 1580 nM |  |  | 
CSCC[C@H](NC(=O)[C@H](CC(=O)O)NC(=O)[C@H](CC(=O)O)NC(=O)[C@H](CC(=O)O)NC(=O)[C@H](CCC(=O)O)NC(=O)[C@@H](N)CC(C)C)C(=O)NCC(=O)N[C@@H](CC(=O)O)C(=O)N[C@@H](CC(C)C)C(=O)O | 556 nM | 900 nM |  | 191 nM |  | 
CC(C)C[C@H](NC(=O)[C@@H](NC(=O)[C@H](CCCCN)NC(=O)[C@@H](NC(=O)[C@H](CCCCN)NC(=O)[C@H](CCCNC(=N)N)NC(=O)[C@H](CC(C)C)NC(=O)[C@H](CCC(=O)O)NC(=O)[C@@H](N)[C@@H](C)O)C(C)C)C(C)C)C(=O)O |  | 2.5 nM |  |  |  | 
CC(C)[C@H](NC(=O)[C@H](CCCNC(=N)N)NC(=O)[C@H](Cc1ccccc1)NC(=O)[C@H](CCC(N)=O)NC(=O)CNC(=O)[C@@H](NC(=O)[C@H](C)NC(=O)[C@H](CCC(=O)O)NC(=O)[C@H](CCC(=O)O)NC(=O)[C@@H](N)CC(N)=O)[C@@H](C)O)C(=O)O |  | 471 nM |  | 998 nM | 405 nM | 
CSCC[C@H](NC(=O)[C@H](CCCNC(=N)N)NC(=O)[C@@H]1CCCN1C(=O)CNC(=O)[C@H](CCC(=O)O)NC(=O)[C@H](CCC(=O)O)NC(=O)[C@@H](N)CCC(=O)O)C(=O)N[C@@H](Cc1ccccc1)C(=O)N1CCC[C@H]1C(=O)N[C@@H](CC(=O)O)C(=O)N[C@@H](CC(C)C)C(=O)O | 2650 nM |  | 3470 nM | 1010 nM | 209 nM | 3270 nM
C[C@H](NC(=O)CNC(=O)[C@H](CCCNC(=N)N)NC(=O)[C@H](CCC(=O)O)NC(=O)[C@@H]1CCCN1)C(=O)N1CCC[C@H]1C(=O)N1CCC[C@H]1C(=O)N[C@@H](CO)C(=O)N[C@H](C(=O)O)[C@@H](C)O | 4740 nM |  | 7680 nM |  | 7770 nM | 1120 nM
CC(C)C[C@H](NC(=O)[C@H](CCC(=O)O)NC(=O)[C@H](CC(C)C)NC(=O)[C@H](C)NC(=O)[C@H](CCC(=O)O)NC(=O)[C@H](CC(N)=O)NC(=O)[C@H](CC(C)C)NC(=O)[C@H](CCC(=O)O)NC(=O)[C@@H](N)CCCNC(=N)N)C(=O)O | 15 nM | 1.1 nM | 30 nM | 3000 nM |  | 
CC[C@H](C)[C@H](NC(=O)[C@H](CCC(=O)O)NC(=O)[C@@H]1CCCN1)C(=O)N[C@@H](CCC(N)=O)C(=O)N[C@@H](CC(N)=O)C(=O)N[C@H](C(=O)N[C@H](C(=O)N[C@@H](Cc1ccc(O)cc1)C(=O)N[C@@H](CC(C)C)C(=O)N[C@@H](Cc1c[nH]c2ccccc12)C(=O)O)[C@@H](C)O)[C@@H](C)O |  | 6170 nM | 9420 nM | 819 nM |  | 
CC(C)C[C@H](NC(=O)CNC(=O)[C@H](CC(C)C)NC(=O)[C@H](Cc1ccc(O)cc1)NC(=O)[C@H](CCC(=O)O)NC(=O)[C@@H]1CCCN1C(=O)[C@H](CC(N)=O)NC(=O)[C@H](CCC(=O)O)NC(=O)[C@H](C)N)C(=O)O |  | 2.5 nM | 271 nM | 17 nM |  | 
CC(C)C[C@H](NC(=O)[C@@H]1CCCN1C(=O)[C@H](CO)NC(=O)[C@H](CCCNC(=N)N)NC(=O)[C@@H]1CCCN1C(=O)[C@H](C)NC(=O)[C@H](CCC(=O)O)NC(=O)[C@H](CCC(=O)O)NC(=O)[C@@H](N)CCC(=O)O)C(=O)O | 4490 nM | 362 nM |  | 902 nM | 307 nM | 
CC[C@H](C)[C@H](NC(=O)[C@H](Cc1c[nH]cn1)NC(=O)[C@@H]1CCCN1C(=O)[C@H](CCC(=O)O)NC(=O)CN)C(=O)N[C@@H](CO)C(=O)N[C@@H](Cc1ccc(O)cc1)C(=O)O [GEPHISY] |  | 272 nM | 6720 nM | 8830 nM |  | 
CC(C)C[C@H](NC(=O)[C@H](Cc1ccc(O)cc1)NC(=O)[C@H](CCC(=O)O)NC(=O)[C@H](CCC(=O)O)NC(=O)[C@H](C)N)C(=O)N[C@H](C(=O)N1CCC[C@H]1C(=O)N[C@@H](CCC(N)=O)C(=O)N[C@@H](CCC(N)=O)C(=O)NCC(=O)O)C(C)C |  | 479 nM |  | 723 nM |  | 
CC(C)C[C@H](NC(=O)[C@H](CCC(=O)O)NC(=O)[C@@H](N)[C@@H](C)O)C(=O)N[C@H](C(=O)N[C@@H](CCC(=O)O)C(=O)N1CCC[C@H]1C(=O)N[C@@H](CC(C)C)C(=O)N[C@H](C(=O)N1CCC[C@H]1C(=O)N[C@@H](CO)C(=O)NCC(=O)O)[C@@H](C)O)C(C)C | 2980 nM | 269 nM |  | 601 nM | 14100 nM | 
CC[C@H](C)[C@H](NC(=O)[C@H](CCC(=O)O)NC(=O)[C@@H]1CCCN1C(=O)[C@H](CCC(=O)O)NC(=O)[C@@H](N)CS)C(=O)N[C@@H](CCC(N)=O)C(=O)N[C@@H](CC(N)=O)C(=O)N[C@H](C(=O)N[C@H](C(=O)N[C@@H](Cc1ccc(O)cc1)C(=O)O)[C@@H](C)O)[C@@H](C)O |  | 14600 nM |  | 1460 nM |  | 
CC(C)C[C@H](NC(=O)[C@H](CC(C)C)NC(=O)[C@H](Cc1ccccc1)NC(=O)[C@H](Cc1c[nH]cn1)NC(=O)[C@@H](NC(=O)[C@H](CC(C)C)NC(=O)[C@H](CCC(=O)O)NC(=O)[C@@H](N)C(C)C)C(C)C)C(=O)O |  | 1.2 nM | 31 nM | 5 nM | 2430 nM | 
CC[C@H](C)[C@H](NC(=O)[C@H](C)NC(=O)[C@H](C)NC(=O)[C@H](CCC(N)=O)NC(=O)[C@H](Cc1ccccc1)NC(=O)[C@H](CCC(=O)O)NC(=O)[C@H](CO)NC(=O)[C@H](CCC(=O)O)NC(=O)[C@@H](N)CC(C)C)C(=O)N[C@@H](CO)C(=O)N[C@@H](CCCNC(=N)N)C(=O)N[C@@H](CCCCN)C(=O)N[C@@H](CCSC)C(=O)O |  | 14 nM |  |  |  | 
CC(C)C[C@H](NC(=O)[C@H](Cc1ccc(O)cc1)NC(=O)[C@H](CCC(=O)O)NC(=O)[C@@H]1CCCN1)C(=O)N[C@H](C(=O)N1CCC[C@H]1C(=O)N[C@@H](CCC(N)=O)C(=O)NCC(=O)NCC(=O)N[C@@H](C)C(=O)N[C@@H](C)C(=O)O)[C@@H](C)O |  | 354 nM | 200 nM |  |  | 
CC[C@H](C)[C@H](NC(=O)[C@H](CCC(=O)O)NC(=O)[C@H](CCC(=O)O)NC(=O)[C@H](CC(C)C)NC(=O)[C@@H](NC(=O)[C@H](CCC(=O)O)NC(=O)[C@@H](N)Cc1ccccc1)[C@@H](C)O)C(=O)N[C@H](C(=O)NCC(=O)N[C@@H](Cc1ccc(O)cc1)C(=O)O)[C@@H](C)O |  | 1680 nM |  |  |  | 
CSCC[C@H](NC(=O)[C@H](CO)NC(=O)[C@H](CCC(=O)O)NC(=O)[C@@H](N)Cc1ccccc1)C(=O)N1CCC[C@H]1C(=O)N[C@@H](CC(N)=O)C(=O)N1CCC[C@H]1C(=O)N[C@@H](CCC(=O)O)C(=O)NCC(=O)N[C@@H](CCCNC(=N)N)C(=O)N[C@@H](Cc1ccc(O)cc1)C(=O)O |  | 70 nM |  |  | 1390 nM | 
CC(C)C[C@H](NC(=O)[C@H](Cc1ccc(O)cc1)NC(=O)[C@H](CCC(=O)O)NC(=O)[C@@H](N)CO)C(=O)N[C@@H](CCC(N)=O)C(=O)N[C@@H](CC(C)C)C(=O)N[C@H](C(=O)N[C@@H](Cc1ccccc1)C(=O)NCC(=O)O)C(C)C |  | 19 nM | 421 nM | 18 nM |  | 
CSCC[C@H](NC(=O)[C@H](CCC(=O)O)NC(=O)[C@H](C)N)C(=O)N[C@@H](CC(C)C)C(=O)NCC(=O)N[C@@H](CO)C(=O)N[C@H](C(=O)N[C@H](C(=O)NCC(=O)O)C(C)C)C(C)C |  | 1.6 nM |  |  |  | 
CC(C)[C@H](NC(=O)[C@H](CO)NC(=O)CNC(=O)[C@H](CC(N)=O)NC(=O)[C@H](CCC(N)=O)NC(=O)[C@@H]1CCCN1C(=O)[C@H](CCC(N)=O)NC(=O)[C@H](CS)NC(=O)[C@H](CCC(=O)O)NC(=O)[C@@H]1CCCN1)C(=O)O |  | 472 nM |  | 7960 nM |  | 
